IC50 and EC50 data for one compound are collected here from US12428427B2, “Methods and compositions for targeting PD-L1” (Aligos Therapeutics, Inc., priority 2021, dated 2025).

Chains of the proteins cited; added tags and fusions are not shown. Residues count along the entry.
UniProt Q9NZQ7, 19-238 limits assumed: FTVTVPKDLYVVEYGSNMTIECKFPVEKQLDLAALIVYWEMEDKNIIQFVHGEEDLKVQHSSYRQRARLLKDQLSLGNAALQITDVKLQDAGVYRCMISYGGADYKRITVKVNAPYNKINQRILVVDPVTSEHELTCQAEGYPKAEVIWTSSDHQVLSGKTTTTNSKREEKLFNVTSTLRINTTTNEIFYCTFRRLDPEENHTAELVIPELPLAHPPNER
UniProt Q9NZQ7, 19-290 limits assumed: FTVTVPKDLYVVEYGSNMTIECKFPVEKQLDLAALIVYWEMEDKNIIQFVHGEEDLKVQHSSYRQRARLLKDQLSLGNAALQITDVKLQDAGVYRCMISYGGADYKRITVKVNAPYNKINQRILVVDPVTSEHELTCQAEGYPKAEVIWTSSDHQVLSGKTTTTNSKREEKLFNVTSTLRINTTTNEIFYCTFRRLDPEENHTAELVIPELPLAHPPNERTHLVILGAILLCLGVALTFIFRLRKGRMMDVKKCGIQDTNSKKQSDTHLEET

A value given as a limit tells only on which side of the number the result lay.

One test addresses PDL1/PD1 (Homo sapiens, UniProt Q9NZQ7). Kind of test: PDL1/PD1 Binding Assay. The note with it: read-out: PD-1/PD-L1 PPI IC50; PDL1-6×His 0.3 nM, PD1-Fc-Avi-Biotin 2.5 nM, Acceptor/Donor beads. On the procedure:
Compounds to be tested were serially diluted in DMSO, and further diluted in assay buffer (25 mM Hepes pH 7.4, 150 mM NaCl, 0.005% Tween 20, BSA 0.01%). Diluted compounds were added to the wells with final concentration of DMSO at 1%. PDL1-6×His protein was added to the wells, mixed well with compound. The plates were incubated for 30 min at room temperature. PD1-Fc-Avi-Biotin protein was added to the wells. Final concentration of PDL1 and PD1 protein is 0.3 nM and 2.5 nM, respectively. After a binding time of 30 min at room temperature, Anti-6×His Acceptor beads (final concentration 20 ug/ml) were added to the wells, and the incubation continued for 1 h. Streptavidin Donor beads (final concentration 20 ug/mL) were added at reduced light. The plates were sealed with foil and incubated in the dark for additional 1 h or overnight before reading on an Envision reader. The IC50 values were determined by fitting the curves using a four-parameter equation in Graphpad Prism 8.

A further test has as its target PD-1/PD-L1 interaction (Homo sapiens, UniProt Q9NZQ7). Nature of the test: PD-1/PD-L1 NFAT Reporter Assay. The note with it: read-out: Jurkat NFAT EC50; co-culture of PD-L1 expressing CHO cells and PD-1 overexpressing Jurkat cells, 6 hrs, NFAT luciferase. On the procedure:
Blocking the PD-1/PD-L1 interaction will release the inhibitory signal and results in TCR signaling and NFAT-mediated luciferase activity.
CHO cells expressing surface-bound anti-CD3 antibodies and PD-L1 were first seeded overnight and treated with the compounds. Jurkat cells overexpressing PD-1 and a luciferase construct under NFAT promoter were then immediately seeded on the monolayer of CHO cells. The co-culture was then incubated for 6 hrs at 37° C. Luciferase activity was assessed by adding the ONE-Glo reagent and measuring luminescence with a plate reader. EC50 values were determined from the fit of the dose-response curves.
On the technique in general: Reporter assays use an easily measured gene product as a stand-in for the process of interest.

As usually defined, the EC50 is the midpoint of the concentration-response curve. `CCOC(=O)N(Cc1ncc(-c2cccc(-c3cccc(NC(=O)c4ccnn(C)c4=O)c3Cl)c2Cl)nc1OC)C[C@@H]1CCC(=O)N1`: the IC50 at PDL1/PD1 fell in the range of 0.01 to 0.1 µM. In addition, the EC50 at PD-1/PD-L1 interaction was more than 5 µM.
